Measurements as given in publication PMC9596378, “Discovery and molecular basis of subtype-selective cyclophilin inhibitors” (Nature Chemical Biology, 2022).

Amino acid sequences for entries named in this document (tags omitted). Residues count along the entry.
UniProt P30405, 45-207 limits assumed: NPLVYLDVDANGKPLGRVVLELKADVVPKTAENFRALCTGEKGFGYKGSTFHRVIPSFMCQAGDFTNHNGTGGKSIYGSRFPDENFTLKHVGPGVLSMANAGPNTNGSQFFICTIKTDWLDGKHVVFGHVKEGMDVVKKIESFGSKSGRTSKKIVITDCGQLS
UniProt P23141, 18-567 limits assumed: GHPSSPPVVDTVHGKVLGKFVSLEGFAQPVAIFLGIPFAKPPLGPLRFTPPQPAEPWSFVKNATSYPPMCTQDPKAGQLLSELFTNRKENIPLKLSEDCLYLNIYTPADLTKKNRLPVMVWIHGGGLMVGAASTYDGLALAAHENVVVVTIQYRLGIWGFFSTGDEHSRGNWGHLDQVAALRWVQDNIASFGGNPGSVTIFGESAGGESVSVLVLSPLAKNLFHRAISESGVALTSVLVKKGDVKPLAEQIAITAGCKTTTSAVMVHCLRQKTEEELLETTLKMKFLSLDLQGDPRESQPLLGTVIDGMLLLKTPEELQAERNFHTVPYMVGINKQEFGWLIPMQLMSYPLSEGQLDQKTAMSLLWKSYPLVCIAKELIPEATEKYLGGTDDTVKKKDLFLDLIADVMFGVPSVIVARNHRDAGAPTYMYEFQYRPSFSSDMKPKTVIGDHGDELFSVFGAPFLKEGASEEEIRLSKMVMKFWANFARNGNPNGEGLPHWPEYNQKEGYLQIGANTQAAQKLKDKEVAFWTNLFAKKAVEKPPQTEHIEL
UniProt O00748, 27-559 limits assumed: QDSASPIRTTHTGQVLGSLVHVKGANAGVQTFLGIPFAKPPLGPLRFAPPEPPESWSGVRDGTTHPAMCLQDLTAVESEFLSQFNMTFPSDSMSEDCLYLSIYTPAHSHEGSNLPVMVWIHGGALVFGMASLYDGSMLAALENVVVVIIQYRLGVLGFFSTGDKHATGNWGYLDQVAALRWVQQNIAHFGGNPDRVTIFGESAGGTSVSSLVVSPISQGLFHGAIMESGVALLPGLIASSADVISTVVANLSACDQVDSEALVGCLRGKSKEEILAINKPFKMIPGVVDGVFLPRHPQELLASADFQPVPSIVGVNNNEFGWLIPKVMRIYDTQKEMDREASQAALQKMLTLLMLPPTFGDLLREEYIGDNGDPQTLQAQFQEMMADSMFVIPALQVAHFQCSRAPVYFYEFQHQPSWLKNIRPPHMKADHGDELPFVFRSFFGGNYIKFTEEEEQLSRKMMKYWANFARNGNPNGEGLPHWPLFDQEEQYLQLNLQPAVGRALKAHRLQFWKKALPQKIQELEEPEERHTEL
UniProt Q08752, 1-183 limits assumed: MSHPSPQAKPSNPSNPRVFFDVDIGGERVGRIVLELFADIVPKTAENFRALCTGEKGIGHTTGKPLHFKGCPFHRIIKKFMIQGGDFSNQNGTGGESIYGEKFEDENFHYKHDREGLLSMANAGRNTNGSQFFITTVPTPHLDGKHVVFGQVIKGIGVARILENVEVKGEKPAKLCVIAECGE
UniProt P62937, whole entry: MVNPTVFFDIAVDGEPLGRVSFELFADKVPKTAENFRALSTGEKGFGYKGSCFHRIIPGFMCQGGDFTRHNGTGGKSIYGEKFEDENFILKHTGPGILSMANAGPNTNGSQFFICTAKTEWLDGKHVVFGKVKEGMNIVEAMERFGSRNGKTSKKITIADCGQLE
UniProt P23284, 34-216 limits assumed: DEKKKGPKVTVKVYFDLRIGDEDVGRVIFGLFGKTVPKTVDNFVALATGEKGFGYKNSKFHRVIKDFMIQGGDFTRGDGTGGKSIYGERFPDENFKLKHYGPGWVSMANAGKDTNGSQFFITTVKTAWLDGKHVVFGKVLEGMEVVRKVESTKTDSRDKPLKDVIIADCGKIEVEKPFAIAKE
UniProt Q9UNP9, 131-301 limits assumed: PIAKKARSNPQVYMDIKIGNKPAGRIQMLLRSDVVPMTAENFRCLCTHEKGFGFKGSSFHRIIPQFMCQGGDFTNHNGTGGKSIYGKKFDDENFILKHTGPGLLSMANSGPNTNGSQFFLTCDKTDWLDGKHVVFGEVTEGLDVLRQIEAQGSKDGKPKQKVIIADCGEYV
UniProt Q9Y3C6, whole entry: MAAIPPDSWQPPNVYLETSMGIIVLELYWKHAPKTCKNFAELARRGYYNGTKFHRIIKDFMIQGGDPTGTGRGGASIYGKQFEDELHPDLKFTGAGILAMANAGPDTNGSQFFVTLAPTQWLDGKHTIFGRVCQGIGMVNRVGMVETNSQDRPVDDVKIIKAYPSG
UniProt Q9H2H8, whole entry: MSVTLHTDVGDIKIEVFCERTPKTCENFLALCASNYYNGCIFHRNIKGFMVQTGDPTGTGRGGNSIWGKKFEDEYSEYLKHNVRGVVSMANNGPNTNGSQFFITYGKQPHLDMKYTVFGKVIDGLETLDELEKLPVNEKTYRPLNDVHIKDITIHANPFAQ
UniProt P45877, 24-212 limits assumed: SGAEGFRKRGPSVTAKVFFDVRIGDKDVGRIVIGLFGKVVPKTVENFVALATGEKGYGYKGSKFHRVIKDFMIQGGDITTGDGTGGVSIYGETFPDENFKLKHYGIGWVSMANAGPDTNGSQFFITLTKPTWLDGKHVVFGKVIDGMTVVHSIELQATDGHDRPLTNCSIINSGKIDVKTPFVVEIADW
UniProt O43447, whole entry: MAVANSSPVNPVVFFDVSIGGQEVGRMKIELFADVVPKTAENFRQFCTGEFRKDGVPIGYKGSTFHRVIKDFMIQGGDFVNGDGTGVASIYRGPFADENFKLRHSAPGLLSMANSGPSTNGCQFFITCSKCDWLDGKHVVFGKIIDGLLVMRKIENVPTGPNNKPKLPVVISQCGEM
UniProt Q96BP3, 473-646 limits assumed: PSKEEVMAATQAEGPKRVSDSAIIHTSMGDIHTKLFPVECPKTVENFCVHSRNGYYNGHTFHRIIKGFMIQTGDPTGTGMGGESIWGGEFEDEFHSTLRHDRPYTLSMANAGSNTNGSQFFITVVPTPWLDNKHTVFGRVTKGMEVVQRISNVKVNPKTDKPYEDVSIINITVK
UniProt P30414, 7-179 limits assumed: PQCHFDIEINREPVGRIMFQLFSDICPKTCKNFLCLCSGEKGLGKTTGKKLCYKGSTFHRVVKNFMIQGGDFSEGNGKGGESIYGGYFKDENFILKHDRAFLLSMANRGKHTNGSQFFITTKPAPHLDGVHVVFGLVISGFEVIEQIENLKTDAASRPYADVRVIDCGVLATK

Experiments:
CypD [1] = target: T1, CypD (Homo sapiens, UniProt P30405); test: Chymotrypsin coupled prolyl-isomerase assay; format: biochemical; settings: read-out: Wild-Type Cyclophilin Prolyl Isomerase Inhibition IC50 Values, CypD; wild-type CypD
HeLa cells [2] = test: Fluorescence microscopy of Cy5-conjugated compounds
[3] = In vitro ester pro-drug stability, buffer only; parameters: unit: %; settings: Tris-HCl (9a), three replicate columns; for Di-acid: share of di-acid species; for Di-ester: share of di-ester species; for Mono-ester: share of mono-ester species
CES1 = CES1 (Homo sapiens, UniProt P23141); test: In vitro esterase activity on ester pro-drugs; parameters: Di-ester: unit not given here; settings: CES1 (9b); three replicate columns
CES2 = CES2 (Homo sapiens, UniProt O00748); test: In vitro esterase activity on ester pro-drugs; parameters: Di-ester: unit not given here; settings: CES2 (9c); three replicate columns
A549 cells = test: Cellular esterase activity on ester pro-drugs; parameters: Di-ester: unit not given here; settings: for Di-acid / Di-ester / Mono-ester: A549 intracellular (9d), three replicate columns
HEK293T cells = test: Cellular esterase activity on ester pro-drugs; parameters: Di-ester: unit not given here; settings: HEK293T intracellular (9f); three replicate columns
HeLa cells [4] = test: Cellular esterase activity on ester pro-drugs; parameters: Di-ester: unit not given here; settings: Hela intracellular (9e); three replicate columns
MEFs = test: Cellular esterase activity on ester pro-drugs; parameters: Di-ester: unit not given here; settings: SV40 MEF intracellular (9g); three replicate columns
HepG2 cells = test: Cellular esterase activity on ester pro-drugs; parameters: Di-ester: unit: %; settings: HepG2 intracellular (9h); three replicate columns
Cyp40 [5] = target: T2, Cyp40 (Homo sapiens, UniProt Q08752); test: Competition anisotropy binding assay with A26-Fl
CypA [6] = target: T3, CypA (Homo sapiens, UniProt P62937); test: Competition anisotropy binding assay with A26-Fl; settings: read-out: Ki CypA; FP competition with 0.5 nM A26-Fl, 24 h
CypB [7] = target: T4, CypB (Homo sapiens, UniProt P23284); test: Competition anisotropy binding assay with A26-Fl; settings: read-out: Ki CypB; FP competition with 0.5 nM A26-Fl, 24 h
CypD [8] = target: T1, CypD; test: Competition anisotropy binding assay with A26-Fl; settings: read-out: Ki CypD; FP competition with 0.5 nM A26-Fl, 24 h
CypE [9] = target: T5, CypE (Homo sapiens, UniProt Q9UNP9); test: Competition anisotropy binding assay with A26-Fl; settings: read-out: Ki CypE; FP competition with 0.5 nM A26-Fl, 24 h
PPIL1 [10] = target: T6, PPIL1 (Homo sapiens, UniProt Q9Y3C6); test: Competition anisotropy binding assay with A26-Fl; settings: read-out: Ki PPIL1; FP competition with 0.5 nM A26-Fl, 24 h
PPIL3 = PPIL3 (Homo sapiens, UniProt Q9H2H8); test: Competition anisotropy binding assay with A26-Fl; settings: read-out: Ki PPIL3; FP competition with 0.5 nM A26-Fl, 24 h
Cyp40 [11] = target: T2, Cyp40; test: Chymotrypsin coupled prolyl-isomerase assay; format: biochemical; settings: read-out: Wild-Type Cyclophilin Prolyl Isomerase Inhibition IC50 Values, Cyp40; wild-type Cyp40
CypA [12] = target: T3, CypA; test: Chymotrypsin coupled prolyl-isomerase assay; format: biochemical; settings: read-out: Wild-Type Cyclophilin Prolyl Isomerase Inhibition IC50 Values, CypA; wild-type CypA
CypC = CypC (Homo sapiens, UniProt P45877); test: Chymotrypsin coupled prolyl-isomerase assay; format: biochemical; settings: read-out: Wild-Type Cyclophilin Prolyl Isomerase Inhibition IC50 Values, CypC; wild-type CypC
CypE [13] = target: T5, CypE; test: Chymotrypsin coupled prolyl-isomerase assay; format: biochemical; settings: read-out: IC50 CypE; prolyl-isomerase inhibition, 5 nM cyclophilin
CypH = CypH (Homo sapiens, UniProt O43447); test: Chymotrypsin coupled prolyl-isomerase assay; format: biochemical
PPWD1 = PPWD1 (Homo sapiens, UniProt Q96BP3); test: Chymotrypsin coupled prolyl-isomerase assay; format: biochemical; settings: read-out: Wild-Type Cyclophilin Prolyl Isomerase Inhibition IC50 Values, PPWD1; wild-type PPWD1
NKTR = NKTR (Homo sapiens, UniProt P30414); test: Chymotrypsin coupled prolyl-isomerase assay; format: biochemical
PPIL1 [14] = target: T6, PPIL1; test: Chymotrypsin coupled prolyl-isomerase assay; format: biochemical; settings: read-out: Wild-Type Cyclophilin Prolyl Isomerase Inhibition IC50 Values, PPIL1; wild-type PPIL1
CypB [15] = target: T4, CypB; settings: read-out: Wild-Type Cyclophilin Prolyl Isomerase Inhibition IC50 Values, CypB; wild-type CypB
[16] = read-out: Ki Cyp40, FP competition with 0.5 nM A26-Fl, 24 h

Row | IC50 (CypD [1]) [µM] | plasma membrane permeability / mitochondrial localization (in words) (HeLa cells [2]) | Di-acid [3] | Di-ester [3] | Mono-ester [3] | Di-acid (CES1) | Di-ester (CES1) | Mono-ester (CES1) | Di-acid (CES2) | Di-ester (CES2) | Mono-ester (CES2) | Di-acid (A549 cells) | Di-ester (A549 cells) | Mono-ester (A549 cells) | SMILES | Ki (CypA [6]) [µM] | Ki (CypB [7]) [µM] | Ki (CypD [8]) [µM] | Ki (CypE [9]) [µM] | Ki (PPIL1 [10]) [µM] | Ki (PPIL3) [µM] | further results
1 | > 2 | good mitochondrial localization | 0 | 100 | 0 | 62 and 72 and 76 | 12 and 11 and 10 | 24 and 16 and 12 | 1 and 2 (2×) | 23 and 21 and 20 | 75 and 76 and 77 | 81 and 82 and 75 | 7 and 8 (2×) | 11 and 9 and 16 | CCOC(=O)C(Cc1ccc(-c2ccc(C[C@H]3NC(=O)[C@@]4(Cc5ccccc5)CCCN(C4)C(=O)/C=C/C(=O)NCC[C@H](C(=O)NCCNC(=O)CCCCCN4C(=CC=CC=CC5=[N+](C)c6ccccc6C5(C)C)C(C)(C)c5ccccc54)NC(=O)Cc4ccccc4CNC3=O)cc2)cc1)C(=O)OCC | – | – | – | – | – | – | intracellular conversion to di-acid (in words) (A549 cells; A549, HeLa, HEK293T, HepG2, MEFs): readily converted to the corresponding di-acids intracellularly; Di-acid (HEK293T cells): 19 and 16 and 17; Di-ester (HEK293T cells): 66 and 69 and 68; Mono-ester (HEK293T cells): 14; Di-acid (HeLa cells [4]): 63 (2×) and 66; Di-ester (HeLa cells [4]): 10 and 9 and 11; Mono-ester (HeLa cells [4]): 26 and 24 and 25; Di-acid (MEFs): 46 and 48 and 50; Di-ester (MEFs): 32 and 30 and 27; Mono-ester (MEFs): 21 (2×) and 22; Di-acid (HepG2 cells): 18 and 16 and 17; Di-ester (HepG2 cells): 58 and 61 and 60; Mono-ester (HepG2 cells): 23 (2×) and 22
2 | – | – | – | – | – | – | – | – | – | – | – | – | – | – | NC(=O)[C@@H]1CCNC(=O)/C=C/C(=O)N2CCC[C@](Cc3ccccc3)(C2)C(=O)N[C@@H](Cc2ccc(-c3ccc(B(O)O)c(C=O)c3)cc2)C(=O)NCc2ccccc2CC(=O)N1 | 2.6 | 2.9 | 0.8 | 0.5 | > 10 | > 10 | Ki (Cyp40 [5]): > 10 µM
3 | > 2 | good mitochondrial localization | 0 | 100 | 0 | 38 and 46 and 45 | 11 and 8 (2×) | 52 and 46 and 48 | 1 | 27 and 29 (2×) | 72 and 71 (2×) | 3 (2×) and 4 | 19 and 20 (2×) | 77 (2×) and 76 | CCOC(=O)CC(CC(=O)OCC)c1ccc(-c2ccc(C[C@H]3NC(=O)[C@@]4(Cc5ccccc5)CCCN(C4)C(=O)/C=C/C(=O)NCC[C@H](C(=O)NCCNC(=O)CCCCCN4C(=CC=CC=CC5=[N+](C)c6ccccc6C5(C)C)C(C)(C)c5ccccc54)NC(=O)Cc4ccccc4CNC3=O)cc2)cc1 | – | – | – | – | – | – | Di-acid (HEK293T cells): 1; Di-ester (HEK293T cells): 53 and 51 and 54; Mono-ester (HEK293T cells): 46 and 48 and 45; Di-acid (HeLa cells [4]): 6 and 8 and 5; Di-ester (HeLa cells [4]): 30 and 29 and 44; Mono-ester (HeLa cells [4]): 64 and 63 and 51; Di-acid (MEFs): 3; Di-ester (MEFs): 43 and 41 and 46; Mono-ester (MEFs): 54 and 56 and 52; Di-acid (HepG2 cells): 3; Di-ester (HepG2 cells): 63 (2×) and 62; Mono-ester (HepG2 cells): 34 (2×) and 35
4 | – | – | – | – | – | – | – | – | – | – | – | – | – | – | CC(=O)c1cc(-c2ccc(C[C@@H]3NC(=O)[C@]4(Cc5ccccc5)CCCN(C4)C(=O)/C=C/C(=O)NCC[C@@H](C(N)=O)NC(=O)Cc4ccccc4CNC3=O)cc2)ccc1B(O)O | > 10 | > 10 | 1.7 | 0.94 | 7.5 | > 10 | Ki (Cyp40 [5]; [16]): > 10 µM

Row | SMILES | IC50 (CypD [1]) [µM] | plasma membrane permeability / mitochondrial localization (in words) (HeLa cells [2]) | Di-acid [3] | Di-ester [3] | Mono-ester [3] | Di-acid (CES1) | Di-ester (CES1) | Mono-ester (CES1) | Di-acid (CES2) | Di-ester (CES2) | Mono-ester (CES2) | Di-acid (A549 cells) | Di-ester (A549 cells) | Mono-ester (A549 cells) | Ki (CypA [6]) [µM] | Ki (CypB [7]) [µM] | Ki (CypD [8]) [µM] | Ki (CypE [9]) [µM] | Ki (PPIL1 [10]) [µM] | Ki (PPIL3) [µM] | further results
5 | CC(=O)c1ccc(-c2ccc(C[C@@H]3NC(=O)[C@]4(Cc5ccccc5)CCCN(C4)C(=O)/C=C/C(=O)NCC[C@@H](C(N)=O)NC(=O)Cc4ccccc4CNC3=O)cc2)cc1B(O)O | 4 | – | – | – | – | – | – | – | – | – | – | – | – | – | > 10 | > 10 | 9 | 1 | 3.4 | > 10 | IC50 (Cyp40 [11]): 7 µM; IC50 (CypA [12]): 7 µM; IC50 (CypC): > 50 µM; IC50 (CypE [13]): 0.9 µM; IC50 (CypH; read-out: IC50 CypH, prolyl-isomerase inhibition, 5 nM cyclophilin): 50 µM; IC50 (CypH; read-out: Wild-Type Cyclophilin Prolyl Isomerase Inhibition IC50 Values, CypH, wild-type CypH): 50 µM; IC50 (PPWD1): 30 µM; IC50 (NKTR; read-out: IC50 NKTR, prolyl-isomerase inhibition, 5 nM cyclophilin): 50 µM; IC50 (NKTR; read-out: Wild-Type Cyclophilin Prolyl Isomerase Inhibition IC50 Values, NKTR, wild-type NKTR): 50 µM; IC50 (PPIL1 [14]): 3 µM; Ki (Cyp40 [5]; [16]): 2.7 µM; IC50 (CypB [15]): 6 µM

Where “and” joins values, the source holds several entries; their conditions need not be identical. Identical values can stand only once. Like-named read-outs stand apart in the source and are kept apart here.
